In patent US20150065499A1, “3-AMINOTHIENO[3,2-c]QUINOLINE DERIVATIVES, METHODS OF PREPARATION AND USES” (TEMPLE UNIVERSITY - OF THE COMMONWEALTH SYSTEM OF HIGHER …, priority 2012, published 2015) one finds IC50 data, which are given here for one compound.

Amino acid sequences for entries named in this document (tags omitted). A change or cut given only in a name is not applied to a line headed by its entry.
UniProt P42338: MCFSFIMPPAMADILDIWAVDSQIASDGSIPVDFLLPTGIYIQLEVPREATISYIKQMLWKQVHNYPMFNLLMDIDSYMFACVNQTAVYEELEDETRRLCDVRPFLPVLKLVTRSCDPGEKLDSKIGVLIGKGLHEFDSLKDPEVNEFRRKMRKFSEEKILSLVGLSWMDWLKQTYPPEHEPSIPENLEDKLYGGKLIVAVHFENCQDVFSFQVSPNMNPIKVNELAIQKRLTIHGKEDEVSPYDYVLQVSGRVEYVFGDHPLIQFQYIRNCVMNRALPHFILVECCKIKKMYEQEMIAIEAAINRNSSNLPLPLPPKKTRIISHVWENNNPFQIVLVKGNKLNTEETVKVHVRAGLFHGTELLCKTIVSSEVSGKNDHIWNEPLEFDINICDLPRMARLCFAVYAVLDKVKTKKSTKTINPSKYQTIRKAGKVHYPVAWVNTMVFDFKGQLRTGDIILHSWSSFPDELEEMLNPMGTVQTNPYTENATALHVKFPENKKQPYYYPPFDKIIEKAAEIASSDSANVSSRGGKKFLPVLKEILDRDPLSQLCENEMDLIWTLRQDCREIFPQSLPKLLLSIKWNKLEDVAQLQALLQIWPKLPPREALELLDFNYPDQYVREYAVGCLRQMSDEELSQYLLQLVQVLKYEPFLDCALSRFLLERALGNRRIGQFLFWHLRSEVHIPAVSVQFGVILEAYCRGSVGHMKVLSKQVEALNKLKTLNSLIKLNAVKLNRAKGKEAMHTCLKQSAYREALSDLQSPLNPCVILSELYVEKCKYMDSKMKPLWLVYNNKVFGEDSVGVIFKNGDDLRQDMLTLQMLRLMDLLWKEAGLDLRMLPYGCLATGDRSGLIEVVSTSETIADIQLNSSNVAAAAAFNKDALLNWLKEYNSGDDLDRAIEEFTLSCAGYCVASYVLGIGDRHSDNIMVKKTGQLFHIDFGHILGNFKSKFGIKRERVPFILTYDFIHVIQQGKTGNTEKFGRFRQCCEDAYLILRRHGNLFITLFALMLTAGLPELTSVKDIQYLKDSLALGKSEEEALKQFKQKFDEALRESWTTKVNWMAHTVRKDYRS
UniProt P48736: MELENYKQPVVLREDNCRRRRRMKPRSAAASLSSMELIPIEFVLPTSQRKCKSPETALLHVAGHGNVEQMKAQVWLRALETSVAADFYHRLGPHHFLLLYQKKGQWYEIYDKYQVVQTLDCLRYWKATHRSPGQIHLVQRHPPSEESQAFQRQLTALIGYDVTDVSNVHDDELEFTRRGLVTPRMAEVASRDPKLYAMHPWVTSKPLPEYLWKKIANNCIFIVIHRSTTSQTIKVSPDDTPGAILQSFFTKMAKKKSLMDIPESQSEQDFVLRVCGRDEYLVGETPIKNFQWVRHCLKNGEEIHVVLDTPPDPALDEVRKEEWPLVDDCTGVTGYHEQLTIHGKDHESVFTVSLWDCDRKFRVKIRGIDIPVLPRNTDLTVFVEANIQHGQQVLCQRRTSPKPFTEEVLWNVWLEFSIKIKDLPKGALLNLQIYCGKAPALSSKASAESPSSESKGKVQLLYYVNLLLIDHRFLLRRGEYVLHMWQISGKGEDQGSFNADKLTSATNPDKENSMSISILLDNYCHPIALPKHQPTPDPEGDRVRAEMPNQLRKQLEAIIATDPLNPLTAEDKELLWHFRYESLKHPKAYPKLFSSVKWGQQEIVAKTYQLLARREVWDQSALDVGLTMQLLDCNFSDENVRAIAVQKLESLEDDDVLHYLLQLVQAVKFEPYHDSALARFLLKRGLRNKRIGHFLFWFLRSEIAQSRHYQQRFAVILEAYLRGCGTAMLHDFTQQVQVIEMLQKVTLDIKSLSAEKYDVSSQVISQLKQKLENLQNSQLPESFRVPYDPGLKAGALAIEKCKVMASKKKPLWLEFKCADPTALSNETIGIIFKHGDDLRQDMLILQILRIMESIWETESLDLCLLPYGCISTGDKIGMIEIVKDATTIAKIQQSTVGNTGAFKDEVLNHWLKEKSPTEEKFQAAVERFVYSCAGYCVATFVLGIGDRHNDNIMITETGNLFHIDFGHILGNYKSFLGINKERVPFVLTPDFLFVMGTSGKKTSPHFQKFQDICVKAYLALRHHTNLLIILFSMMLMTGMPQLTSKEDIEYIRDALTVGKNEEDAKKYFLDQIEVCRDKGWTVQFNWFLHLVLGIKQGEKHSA

Usually IC50 stands for the concentration that gives 50% inhibition.

The target in experiment [1] is T1, Human PI3Kβ (p110β/p85α) (Homo sapiens, UniProt P42338).
T1 construct: N-terminal 6His-tagged recombinant full-length human p110β; 6His (N); host or cells: Baculovirus infected Sf21 cells
Briefly: PI3K isoform HTRF enzyme assay, PI3Kβ. Type of experiment: biochemical. The settings on record: 10 μM PIP2, 10 μM ATP, read-out: IC50 against PI3Kβ. As for the experimental part: (§1) The compound of Example 18, methyl 3-(4-fluorobenzamido)-7,8-dimethoxythieno[3,2-c]quinoline-2-carboxylate, was tested for ability to inhibit the four PI3K isoforms PI3Kα, PI3Kβ, PI3Kδ and PI3Kγ in a homogeneous time-resolved fluorescence (HTRF) enzyme assay.
(§2) The assay relies on the action of the aforesaid kinases on the substrate phosphatidylinositol (4,5)-bisphosphate (PIP2), providing the product phosphatidylinositol (3,4,5)-trisphosphate (PIP3). The PIP3 product is detected by displacement of biotin-PIP3 from an energy transfer complex consisting of Europium labeled anti-GST monoclonal antibody, a GST-tagged pleckstrin homology (PH) domain, biotinylated PIP3 and Streptavidin-Allophycocyanin (APC). Excitation of Europium in the complex results in an energy transfer to the APC and a fluorescent emission at 665 nm. The PIP3 product formed by PI 3-kinase(h) activity displaces biotin-PIP3 from the complex resulting in a loss of energy transfer and thus a decrease in signal. […]
(§3) The enzymes (PI3Kα, PI3Kβ, PI3Kδ or PI3Kγ) were delivered into the following kinase reaction buffer containing 10 μM PIP2 substrate: HEPES 50 mM (pH7.0), NaN3 0.02%, BSA 0.01%, Orthovanadate 0.1 mM, 1% DMSO. […] Homogeneous time-resolved fluorescence (HTRF) was measured (Ex=320 nm, ratio of Em=615 nm and Em=665 nm). […]
A general note: Time-resolved FRET reads energy transfer from a long-lived donor to a nearby acceptor.

Experiment [2] addresses T2, Human PI3Kγ (p120γ) (Homo sapiens, UniProt P48736).
T2 construct: His (N); host or cells: Baculovirus infected insect cells (printed 'SP)', probably a misprint of Sf9)
Briefly: PI3K isoform HTRF enzyme assay, PI3Kγ. Type of experiment: biochemical. The settings on record: 10 μM PIP2, 10 μM ATP, read-out: IC50 against PI3Kγ. As for the experimental part: as §1, §2, §3

Turning to `O=c1cc(N2CCOCC2)oc2c(-c3ccccc3)cccc12` [LY294002, 2-(4-morpholinyl)-8-phenyl-chromone, reference compound], the IC50 amounted to 2060 nM in experiment [1] and 896 nM in experiment [2].
